The source of these data is ChEMBL document CHEMBL1147532, “The design, preparation and SAR of novel small molecule sodium (Na(+)) channel blockers” (Bioorg Med Chem Lett, 2004).

Chains of the proteins cited; added tags and fusions are not shown.
UniProt P04775, whole entry: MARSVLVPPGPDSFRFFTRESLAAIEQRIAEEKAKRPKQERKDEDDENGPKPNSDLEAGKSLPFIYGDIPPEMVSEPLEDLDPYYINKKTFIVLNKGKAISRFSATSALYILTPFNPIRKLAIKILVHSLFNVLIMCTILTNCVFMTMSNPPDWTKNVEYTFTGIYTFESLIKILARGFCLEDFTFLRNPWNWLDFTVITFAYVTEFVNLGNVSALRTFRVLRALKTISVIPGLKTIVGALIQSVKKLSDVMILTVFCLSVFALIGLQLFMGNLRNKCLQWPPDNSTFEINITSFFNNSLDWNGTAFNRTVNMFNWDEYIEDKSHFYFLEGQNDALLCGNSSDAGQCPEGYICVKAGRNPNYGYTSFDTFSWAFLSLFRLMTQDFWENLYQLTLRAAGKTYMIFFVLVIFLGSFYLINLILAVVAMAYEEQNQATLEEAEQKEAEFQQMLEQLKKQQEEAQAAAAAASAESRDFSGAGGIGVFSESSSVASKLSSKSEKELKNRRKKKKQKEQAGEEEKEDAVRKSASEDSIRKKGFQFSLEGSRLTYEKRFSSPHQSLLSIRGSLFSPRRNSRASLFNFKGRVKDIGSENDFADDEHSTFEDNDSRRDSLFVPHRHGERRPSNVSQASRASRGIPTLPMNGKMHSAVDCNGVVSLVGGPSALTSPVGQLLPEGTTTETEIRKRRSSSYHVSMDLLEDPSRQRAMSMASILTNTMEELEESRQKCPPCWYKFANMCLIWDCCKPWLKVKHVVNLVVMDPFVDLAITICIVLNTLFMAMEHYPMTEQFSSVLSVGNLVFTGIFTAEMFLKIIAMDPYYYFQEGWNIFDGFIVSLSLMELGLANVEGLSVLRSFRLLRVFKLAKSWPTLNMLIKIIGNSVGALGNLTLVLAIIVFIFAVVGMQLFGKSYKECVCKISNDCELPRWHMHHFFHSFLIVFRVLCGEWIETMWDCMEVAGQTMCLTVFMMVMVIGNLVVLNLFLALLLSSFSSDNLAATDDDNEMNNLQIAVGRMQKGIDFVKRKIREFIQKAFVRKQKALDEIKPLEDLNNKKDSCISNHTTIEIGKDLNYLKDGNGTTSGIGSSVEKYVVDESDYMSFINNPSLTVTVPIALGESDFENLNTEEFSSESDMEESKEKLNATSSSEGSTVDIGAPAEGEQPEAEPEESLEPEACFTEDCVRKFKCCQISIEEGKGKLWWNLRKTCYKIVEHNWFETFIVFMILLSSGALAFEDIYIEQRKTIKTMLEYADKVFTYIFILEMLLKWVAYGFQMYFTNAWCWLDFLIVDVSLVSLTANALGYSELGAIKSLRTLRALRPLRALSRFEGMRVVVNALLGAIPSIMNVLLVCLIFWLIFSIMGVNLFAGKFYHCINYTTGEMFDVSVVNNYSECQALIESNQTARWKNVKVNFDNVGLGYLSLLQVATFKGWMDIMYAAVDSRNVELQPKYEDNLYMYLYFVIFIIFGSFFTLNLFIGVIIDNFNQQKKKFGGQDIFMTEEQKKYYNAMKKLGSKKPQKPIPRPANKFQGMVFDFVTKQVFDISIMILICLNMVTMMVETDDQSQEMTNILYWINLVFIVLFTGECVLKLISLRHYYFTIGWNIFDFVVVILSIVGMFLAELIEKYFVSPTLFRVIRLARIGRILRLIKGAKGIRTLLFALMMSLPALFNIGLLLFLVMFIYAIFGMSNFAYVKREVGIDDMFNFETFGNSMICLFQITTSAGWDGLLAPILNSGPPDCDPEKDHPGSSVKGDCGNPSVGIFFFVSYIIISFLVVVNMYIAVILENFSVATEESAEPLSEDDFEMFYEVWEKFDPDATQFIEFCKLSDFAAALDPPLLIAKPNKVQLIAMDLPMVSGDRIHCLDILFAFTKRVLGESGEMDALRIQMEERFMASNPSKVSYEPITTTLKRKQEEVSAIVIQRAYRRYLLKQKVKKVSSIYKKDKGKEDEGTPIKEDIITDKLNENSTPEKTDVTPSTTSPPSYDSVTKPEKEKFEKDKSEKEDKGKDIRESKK
UniProt P08104, whole entry: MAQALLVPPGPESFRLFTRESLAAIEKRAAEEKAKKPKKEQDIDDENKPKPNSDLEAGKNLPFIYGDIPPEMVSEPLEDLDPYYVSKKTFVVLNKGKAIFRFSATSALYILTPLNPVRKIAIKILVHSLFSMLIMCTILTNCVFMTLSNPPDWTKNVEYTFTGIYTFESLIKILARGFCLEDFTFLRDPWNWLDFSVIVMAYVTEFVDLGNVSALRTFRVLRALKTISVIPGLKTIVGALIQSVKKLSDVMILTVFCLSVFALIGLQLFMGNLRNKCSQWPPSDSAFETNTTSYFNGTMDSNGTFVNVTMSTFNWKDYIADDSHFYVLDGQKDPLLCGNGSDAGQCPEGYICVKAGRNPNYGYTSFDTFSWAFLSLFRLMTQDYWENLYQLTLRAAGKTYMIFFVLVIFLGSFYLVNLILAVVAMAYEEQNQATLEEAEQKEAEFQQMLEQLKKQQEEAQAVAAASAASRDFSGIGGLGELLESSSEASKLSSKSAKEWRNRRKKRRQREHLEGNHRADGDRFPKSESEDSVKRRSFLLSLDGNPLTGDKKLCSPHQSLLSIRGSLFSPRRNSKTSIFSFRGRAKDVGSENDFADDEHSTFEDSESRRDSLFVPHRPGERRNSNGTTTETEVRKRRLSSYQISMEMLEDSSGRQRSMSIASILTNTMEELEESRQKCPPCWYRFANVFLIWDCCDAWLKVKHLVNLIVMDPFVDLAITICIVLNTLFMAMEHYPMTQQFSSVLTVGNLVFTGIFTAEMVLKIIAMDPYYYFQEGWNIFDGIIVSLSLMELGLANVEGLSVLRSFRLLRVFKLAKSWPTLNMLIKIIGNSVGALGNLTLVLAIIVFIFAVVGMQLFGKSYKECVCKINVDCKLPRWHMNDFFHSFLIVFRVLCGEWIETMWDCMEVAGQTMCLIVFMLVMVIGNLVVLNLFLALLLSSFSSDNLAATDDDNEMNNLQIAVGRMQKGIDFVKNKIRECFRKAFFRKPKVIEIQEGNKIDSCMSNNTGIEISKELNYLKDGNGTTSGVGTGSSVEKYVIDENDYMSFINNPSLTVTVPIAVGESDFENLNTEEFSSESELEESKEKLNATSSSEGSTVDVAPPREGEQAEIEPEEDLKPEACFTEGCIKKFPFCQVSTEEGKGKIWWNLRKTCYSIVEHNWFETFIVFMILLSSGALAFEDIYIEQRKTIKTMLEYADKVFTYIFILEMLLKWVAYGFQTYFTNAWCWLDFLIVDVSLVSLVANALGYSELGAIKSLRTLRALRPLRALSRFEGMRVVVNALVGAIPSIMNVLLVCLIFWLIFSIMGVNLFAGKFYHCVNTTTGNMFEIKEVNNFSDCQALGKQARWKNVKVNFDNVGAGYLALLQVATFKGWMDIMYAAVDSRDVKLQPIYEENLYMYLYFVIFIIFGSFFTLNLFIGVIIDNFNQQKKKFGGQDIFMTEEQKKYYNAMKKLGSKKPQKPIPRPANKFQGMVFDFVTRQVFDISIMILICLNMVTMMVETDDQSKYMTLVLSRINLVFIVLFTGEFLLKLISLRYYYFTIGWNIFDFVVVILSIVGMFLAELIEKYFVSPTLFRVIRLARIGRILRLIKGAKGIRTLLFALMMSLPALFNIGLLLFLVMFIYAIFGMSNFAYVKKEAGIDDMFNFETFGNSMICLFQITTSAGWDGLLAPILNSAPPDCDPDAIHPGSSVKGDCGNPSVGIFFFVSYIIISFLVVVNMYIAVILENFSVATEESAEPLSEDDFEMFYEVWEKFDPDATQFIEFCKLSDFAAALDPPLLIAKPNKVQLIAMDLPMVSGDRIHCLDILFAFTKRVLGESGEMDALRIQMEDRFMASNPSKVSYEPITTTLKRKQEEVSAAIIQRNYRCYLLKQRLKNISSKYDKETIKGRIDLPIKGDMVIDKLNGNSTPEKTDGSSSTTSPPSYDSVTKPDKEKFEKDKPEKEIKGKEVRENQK
UniProt P10635, whole entry: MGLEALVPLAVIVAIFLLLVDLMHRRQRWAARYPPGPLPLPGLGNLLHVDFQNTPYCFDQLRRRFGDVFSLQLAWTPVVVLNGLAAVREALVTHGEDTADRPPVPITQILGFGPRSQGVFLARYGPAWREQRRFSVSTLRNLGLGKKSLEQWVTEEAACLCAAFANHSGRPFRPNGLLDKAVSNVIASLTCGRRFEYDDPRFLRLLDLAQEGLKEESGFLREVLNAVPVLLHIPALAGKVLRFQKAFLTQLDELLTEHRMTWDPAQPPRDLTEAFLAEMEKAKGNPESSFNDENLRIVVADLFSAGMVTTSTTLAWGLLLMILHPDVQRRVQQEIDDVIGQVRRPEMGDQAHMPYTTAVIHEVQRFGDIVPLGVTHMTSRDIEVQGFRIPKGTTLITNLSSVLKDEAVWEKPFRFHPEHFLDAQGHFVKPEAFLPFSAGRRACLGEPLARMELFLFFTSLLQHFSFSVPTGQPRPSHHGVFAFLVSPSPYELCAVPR

The structures appear in SMILES notation. pIC50, pKi: −log10 of the molar value. Some compounds may have been tested in ways that are not shown here.

Experiment [1] deals with Sodium channel alpha subunits; brain (Types I, II, III) (Rattus norvegicus, UniProt P04775+P04774+P08104). The note with it: Cerebral cortex.
Another experiment addresses Cytochrome P450 2D6 (Homo sapiens, UniProt P10635).

With `COc1ccc(OCC(O)CN2CCC(N(C(=O)c3ccc(Cl)cc3)c3ccccc3)CC2)cc1` (stereo not drawn), the pIC50 (commonly −log10 of the IC50, conventionally taken in molar units) in experiment [1] was 6.64. At Cytochrome P450 2D6, the pKi – broadly, −log10 of the Ki, conventionally taken in molar units – is 6.00.

Take `COc1ccc(OCC(O)CN2CCC(N(C(=O)c3ccccc3)c3ccccc3)CC2)cc1` (stereo not drawn): in experiment [1], the pIC50 was 6.58. The same compound had a pKi at Cytochrome P450 2D6 of 5.70.

In experiment [1], `COc1ccc(OCC(O)CN2CCC(N(C(=O)c3ccc(Cl)cc3)c3ccc(F)cc3)CC2)cc1` (stereo not drawn) had a pIC50 of 6.67. Moreover, on Cytochrome P450 2D6, the pKi is 5.70.

On to `COc1ccc(OCC(O)CN2CCC(N(C(=O)c3ccccc3)c3ccc(F)cc3)CC2)cc1` (stereo not drawn), for which, in experiment [1], the pIC50 is 6.71. Besides, the pKi at Cytochrome P450 2D6 was 6.00.
